Here are results for 22 compounds from BindingDB's records for US10183938.

Sequences of proteins named here, by UniProt entry; tags and fusion partners are left off. Residues count along the entry.
UniProt P36544, 23-502 limits assumed: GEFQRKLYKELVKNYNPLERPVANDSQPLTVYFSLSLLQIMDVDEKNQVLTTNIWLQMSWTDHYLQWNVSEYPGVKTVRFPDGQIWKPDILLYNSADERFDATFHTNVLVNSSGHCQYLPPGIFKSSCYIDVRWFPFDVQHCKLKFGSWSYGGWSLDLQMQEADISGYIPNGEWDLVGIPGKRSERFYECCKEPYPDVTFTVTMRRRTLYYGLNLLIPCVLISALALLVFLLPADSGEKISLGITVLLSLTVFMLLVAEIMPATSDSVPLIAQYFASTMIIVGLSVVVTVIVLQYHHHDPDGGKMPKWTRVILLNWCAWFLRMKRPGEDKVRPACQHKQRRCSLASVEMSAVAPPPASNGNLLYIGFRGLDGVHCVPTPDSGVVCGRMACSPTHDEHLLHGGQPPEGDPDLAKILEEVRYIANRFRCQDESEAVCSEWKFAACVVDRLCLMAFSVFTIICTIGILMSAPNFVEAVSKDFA

This assay has as its target Neuronal acetylcholine receptor subunit alpha-7 (Homo sapiens, UniProt P36544). Nature of the assay: Human alpha7 nAChR Binding Assay.

`Cc1csc2cc(C(=O)N[C@@H]3C4CCN(CC4)C34CC4)ccc12` gave a Ki of 6300 nM.
`CC(C)(C)c1cccc2cc(C(=O)N[C@@H]3C4CCN(CC4)C3(C)C)sc12` registered an inhibition constant Ki of 630 nM.
As for `O=C(N[C@@H]1C2CCN(CC2)C12CC2)c1ccc2cc(Cl)sc2c1`, the figure is 290 nM; as for `Cc1ccc2cc(C(=O)N[C@@H]3C4CCN(CC4)C34CC4)sc2c1C(F)(F)F`, 670 nM; as for `O=C(N[C@@H]1C2CCN(CC2)C12CC2)c1n[nH]c2ccccc12`, 350 nM.
The figure for `O=C(N[C@@H]1C2CCN(CC2)C12CC2)c1cc2cccc(Cl)c2o1` is 730 nM; for `O=C(N[C@@H]1C2CCN(CC2)C12CC2)c1cc2cccc(C3CC3)c2s1` it is 36 nM; for `O=C(N[C@@H]1C2CCN(CC2)C12CC2)c1cc2ccc3c(c2s1)CCCO3` it is 100 nM.
As for `CC1(C)[C@H](NC(=O)c2ccc3ccsc3c2)C2CCN1CC2`, the figure is 620 nM; as for `O=C(N[C@@H]1C2CCN(CC2)C12CC2)c1cc2cccc(OC(F)(F)F)c2s1`, 520 nM; as for `O=C(N[C@@H]1C2CCN(CC2)C12CC2)c1ccc2oc(C3CC3)cc2c1`, 620 nM.
Turning to `COc1ccc2sc(C(=O)N[C@@H]3C4CCN(CC4)C3(C)C)cc2c1`, the Ki turned out to be 6700 nM.
Compound `CC1(C)[C@@H](NC(=O)c2cc3cccc(F)c3s2)C2CCN1CC2` registered an inhibition constant Ki of 6700 nM.
The compound `COc1ccc2cc(C(=O)N[C@@H]3C4CCN(CC4)C34CC4)sc2c1C(F)(F)F` showed a Ki of 7600 nM.
The figure for `Cc1nc2cc(C(=O)N[C@@H]3C4CCN(CC4)C34CC4)ccc2s1` is 770 nM.
The figure for `CC1(C)[C@H](NC(=O)c2cc3cccc(CC(F)(F)F)c3s2)C2CCN1CC2` is 505 nM; for `CC1(C)[C@H](NC(=O)c2cc3cccc(C4(C(F)(F)F)CC4)c3s2)C2CCN1CC2` it is 2900 nM; for `CC1(C)[C@H](NC(=O)c2cc3ccc(F)c(F)c3s2)C2CCN1CC2` it is 1000 nM.
The figure for `COCc1ccc2cc(C(=O)N[C@@H]3C4CCN(CC4)C3(C)C)sc2c1` is 4400 nM.
Regarding `Cc1csc2ccc(C(=O)N[C@@H]3C4CCN(CC4)C34CC4)cc12`, the inhibition constant Ki is 760 nM.
The figure for `CC1(C)[C@H](NC(=O)c2ccc3oc(Cl)cc3c2)C2CCN1CC2` is 590 nM; for `O=C(N[C@@H]1C2CCN(CC2)C12CC2)c1cc2ccc(OC(F)(F)F)cc2s1` it is 8200 nM.
